## Membrane permeability of cyclic peptides

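Conditions beyond the assay type are not listed; see the original paper. The list need not hold all peptides of the study. Peptides that the database sets to -10, its floor, are left out.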

PAMPA measures passive passage through an artificial lipid membrane. Permeability is in 10^-6 cm/s, converted from the database's log10 values; higher is more permeable.

SMILES | PAMPA (10^-6 cm/s)
CC(C)C[C@@H]1NC(=O)[C@H](C)NC(=O)[C@H](Cc2ccccc2)NC(=O)[C@H](CC(C)C)NC(=O)[C@H]2CCCN2C(=O)C[C@H](Cc2ccccc2)NC1=O | 0.35
CC(C)C[C@@H]1C(=O)N[C@@H](Cc2ccccc2)C(=O)N(C)[C@@H](C)C(=O)N[C@H](CC(C)C)C(=O)N[C@H](CC(C)C)C(=O)N2CCC[C@H]2C(=O)N1C | 6.5
CC(C)C[C@@H]1NC(=O)[C@H]2CCCN2C(=O)[C@@H](CC(C)C)N(C)C(=O)[C@@H](CC(C)C)NC(=O)[C@@H](C)N(C)C(=O)[C@H]2CCCN2C(=O)[C@H](Cc2ccccc2)NC1=O | 0.035
CC(C)C[C@@H]1C(=O)N(C)[C@@H](CC(C)C)C(=O)N2CCC[C@H]2C(=O)N(C)[C@@H](CC(C)C)C(=O)N[C@@H](Cc2ccccc2)C(=O)N2CCC[C@H]2C(=O)N(C)[C@@H](C)C(=O)N1C | 2.8
CCCN1CC(=O)N[C@@H](CC(C)C)C(=O)N(C)[C@@H](CC(C)C)C(=O)N2CCC[C@H]2C(=O)N[C@H](CC(C)C)C(=O)N[C@@H](Cc2ccccc2)C(=O)N2CCC[C@@H]2C1=O | 0.71
CC(C)C[C@@H]1NC(=O)[C@H](C)N(C)C(=O)[C@@H]2CCCN2C(=O)[C@H](Cc2ccccc2)NC(=O)[C@@H](CC(C)C)N(C)C(=O)[C@@H]2CCCN2C(=O)[C@H](CC(C)C)N(C)C1=O | 0.6
CC(C)C[C@H]1NC(=O)[C@@H]2CCCN2C(=O)[C@H](CC(C)C)N(C)C(=O)[C@H](CC(C)C)N(C)C(=O)[C@@H](C)NC(=O)[C@@H]2CCCN2C(=O)[C@H](Cc2ccccc2)NC1=O | 1.1
CC(C)C[C@@H]1NC(=O)[C@@H](CC(C)C)N(C)C(=O)[C@H](C)N(C)C(=O)[C@H]2CCCN2C(=O)[C@H](Cc2ccccc2)NC(=O)[C@@H](CC(C)C)N(C)C(=O)[C@@H]2CCCN2C1=O | 9.1
CCCN1CC(=O)N[C@@H](CC(C)C)C(=O)N[C@@H](Cc2ccccc2)CC(=O)N2CCC[C@@H]2C(=O)N[C@@H](CC(C)C)C(=O)N[C@@H](Cc2ccccc2)C(=O)N2CCC[C@@H]2C1=O | 0.58
CC(C)C[C@H]1NC(=O)[C@H](C)NC(=O)[C@@H]2CCCN2C(=O)[C@H](Cc2ccccc2)NC(=O)[C@H](CC(C)C)N(C)C(=O)[C@@H]2CCCN2C(=O)[C@H](CC(C)C)N(C)C1=O | 3.1
CC(C)C[C@@H]1C(=O)N[C@@H](Cc2ccccc2)C(=O)N2CCC[C@@H]2C(=O)N(C)[C@@H](C)C(=O)N(Cc2ccccc2)CC(=O)N(C)[C@@H](CC(C)C)C(=O)N2CCC[C@H]2C(=O)N1C | 5.2
CC(C)C[C@H]1NC(=O)[C@@H](C)NC(=O)[C@H](Cc2ccccc2)NC(=O)[C@@H](CC(C)C)NC(=O)[C@@H]2CCCN2C(=O)[C@@H](CC(C)C)NC1=O | 0.2
CC(C)C[C@@H]1NC(=O)[C@H](C)NC(=O)[C@H](Cc2ccccc2)NC(=O)[C@@H](CC(C)C)NC(=O)[C@@H]2CCCN2C(=O)[C@@H](CC(C)C)NC1=O | 0.59
CC(C)C[C@@H]1NC(=O)[C@@H](C)N(C)C(=O)[C@H](Cc2ccccc2)NC(=O)[C@H](CC(C)C)N(C)C(=O)[C@@H]2CCCN2C(=O)[C@H](CC(C)C)NC1=O | 4
CC(C)C[C@@H]1NC(=O)[C@@H](C)NC(=O)[C@H]2CCCN2C(=O)[C@H](Cc2ccccc2)NC(=O)CN(Cc2ccccc2)C(=O)[C@H]2CCCN2C(=O)CN(Cc2ccccc2)C1=O | 0.95

A selection of 2 entries from above:

SMILES	PAMPA (10^-6 cm/s)
CCCN1CC(=O)N[C@@H](CC(C)C)C(=O)N(C)[C@@H](CC(C)C)C(=O)N2CCC[C@H]2C(=O)N[C@H](CC(C)C)C(=O)N[C@@H](Cc2ccccc2)C(=O)N2CCC[C@@H]2C1=O	0.71
CC(C)C[C@@H]1NC(=O)[C@H](C)NC(=O)[C@H](Cc2ccccc2)NC(=O)[C@H](CC(C)C)NC(=O)[C@H]2CCCN2C(=O)C[C@H](Cc2ccccc2)NC1=O	0.35

Source: CycPeptMPDB (Li et al. 2023), which took these values from Townsend et al. 2020, doi:10.26434/chemrxiv.13335941.v1.